Assay results: US5492839A, “Immunogenic ryanodine derivative and related uses” (priority 1994, dated 1996)

Chains of the proteins cited; added tags and fusions are not shown. Lines headed by an entry give the natural chain unless they say otherwise; changes in a name come on top.
UniProt P11716: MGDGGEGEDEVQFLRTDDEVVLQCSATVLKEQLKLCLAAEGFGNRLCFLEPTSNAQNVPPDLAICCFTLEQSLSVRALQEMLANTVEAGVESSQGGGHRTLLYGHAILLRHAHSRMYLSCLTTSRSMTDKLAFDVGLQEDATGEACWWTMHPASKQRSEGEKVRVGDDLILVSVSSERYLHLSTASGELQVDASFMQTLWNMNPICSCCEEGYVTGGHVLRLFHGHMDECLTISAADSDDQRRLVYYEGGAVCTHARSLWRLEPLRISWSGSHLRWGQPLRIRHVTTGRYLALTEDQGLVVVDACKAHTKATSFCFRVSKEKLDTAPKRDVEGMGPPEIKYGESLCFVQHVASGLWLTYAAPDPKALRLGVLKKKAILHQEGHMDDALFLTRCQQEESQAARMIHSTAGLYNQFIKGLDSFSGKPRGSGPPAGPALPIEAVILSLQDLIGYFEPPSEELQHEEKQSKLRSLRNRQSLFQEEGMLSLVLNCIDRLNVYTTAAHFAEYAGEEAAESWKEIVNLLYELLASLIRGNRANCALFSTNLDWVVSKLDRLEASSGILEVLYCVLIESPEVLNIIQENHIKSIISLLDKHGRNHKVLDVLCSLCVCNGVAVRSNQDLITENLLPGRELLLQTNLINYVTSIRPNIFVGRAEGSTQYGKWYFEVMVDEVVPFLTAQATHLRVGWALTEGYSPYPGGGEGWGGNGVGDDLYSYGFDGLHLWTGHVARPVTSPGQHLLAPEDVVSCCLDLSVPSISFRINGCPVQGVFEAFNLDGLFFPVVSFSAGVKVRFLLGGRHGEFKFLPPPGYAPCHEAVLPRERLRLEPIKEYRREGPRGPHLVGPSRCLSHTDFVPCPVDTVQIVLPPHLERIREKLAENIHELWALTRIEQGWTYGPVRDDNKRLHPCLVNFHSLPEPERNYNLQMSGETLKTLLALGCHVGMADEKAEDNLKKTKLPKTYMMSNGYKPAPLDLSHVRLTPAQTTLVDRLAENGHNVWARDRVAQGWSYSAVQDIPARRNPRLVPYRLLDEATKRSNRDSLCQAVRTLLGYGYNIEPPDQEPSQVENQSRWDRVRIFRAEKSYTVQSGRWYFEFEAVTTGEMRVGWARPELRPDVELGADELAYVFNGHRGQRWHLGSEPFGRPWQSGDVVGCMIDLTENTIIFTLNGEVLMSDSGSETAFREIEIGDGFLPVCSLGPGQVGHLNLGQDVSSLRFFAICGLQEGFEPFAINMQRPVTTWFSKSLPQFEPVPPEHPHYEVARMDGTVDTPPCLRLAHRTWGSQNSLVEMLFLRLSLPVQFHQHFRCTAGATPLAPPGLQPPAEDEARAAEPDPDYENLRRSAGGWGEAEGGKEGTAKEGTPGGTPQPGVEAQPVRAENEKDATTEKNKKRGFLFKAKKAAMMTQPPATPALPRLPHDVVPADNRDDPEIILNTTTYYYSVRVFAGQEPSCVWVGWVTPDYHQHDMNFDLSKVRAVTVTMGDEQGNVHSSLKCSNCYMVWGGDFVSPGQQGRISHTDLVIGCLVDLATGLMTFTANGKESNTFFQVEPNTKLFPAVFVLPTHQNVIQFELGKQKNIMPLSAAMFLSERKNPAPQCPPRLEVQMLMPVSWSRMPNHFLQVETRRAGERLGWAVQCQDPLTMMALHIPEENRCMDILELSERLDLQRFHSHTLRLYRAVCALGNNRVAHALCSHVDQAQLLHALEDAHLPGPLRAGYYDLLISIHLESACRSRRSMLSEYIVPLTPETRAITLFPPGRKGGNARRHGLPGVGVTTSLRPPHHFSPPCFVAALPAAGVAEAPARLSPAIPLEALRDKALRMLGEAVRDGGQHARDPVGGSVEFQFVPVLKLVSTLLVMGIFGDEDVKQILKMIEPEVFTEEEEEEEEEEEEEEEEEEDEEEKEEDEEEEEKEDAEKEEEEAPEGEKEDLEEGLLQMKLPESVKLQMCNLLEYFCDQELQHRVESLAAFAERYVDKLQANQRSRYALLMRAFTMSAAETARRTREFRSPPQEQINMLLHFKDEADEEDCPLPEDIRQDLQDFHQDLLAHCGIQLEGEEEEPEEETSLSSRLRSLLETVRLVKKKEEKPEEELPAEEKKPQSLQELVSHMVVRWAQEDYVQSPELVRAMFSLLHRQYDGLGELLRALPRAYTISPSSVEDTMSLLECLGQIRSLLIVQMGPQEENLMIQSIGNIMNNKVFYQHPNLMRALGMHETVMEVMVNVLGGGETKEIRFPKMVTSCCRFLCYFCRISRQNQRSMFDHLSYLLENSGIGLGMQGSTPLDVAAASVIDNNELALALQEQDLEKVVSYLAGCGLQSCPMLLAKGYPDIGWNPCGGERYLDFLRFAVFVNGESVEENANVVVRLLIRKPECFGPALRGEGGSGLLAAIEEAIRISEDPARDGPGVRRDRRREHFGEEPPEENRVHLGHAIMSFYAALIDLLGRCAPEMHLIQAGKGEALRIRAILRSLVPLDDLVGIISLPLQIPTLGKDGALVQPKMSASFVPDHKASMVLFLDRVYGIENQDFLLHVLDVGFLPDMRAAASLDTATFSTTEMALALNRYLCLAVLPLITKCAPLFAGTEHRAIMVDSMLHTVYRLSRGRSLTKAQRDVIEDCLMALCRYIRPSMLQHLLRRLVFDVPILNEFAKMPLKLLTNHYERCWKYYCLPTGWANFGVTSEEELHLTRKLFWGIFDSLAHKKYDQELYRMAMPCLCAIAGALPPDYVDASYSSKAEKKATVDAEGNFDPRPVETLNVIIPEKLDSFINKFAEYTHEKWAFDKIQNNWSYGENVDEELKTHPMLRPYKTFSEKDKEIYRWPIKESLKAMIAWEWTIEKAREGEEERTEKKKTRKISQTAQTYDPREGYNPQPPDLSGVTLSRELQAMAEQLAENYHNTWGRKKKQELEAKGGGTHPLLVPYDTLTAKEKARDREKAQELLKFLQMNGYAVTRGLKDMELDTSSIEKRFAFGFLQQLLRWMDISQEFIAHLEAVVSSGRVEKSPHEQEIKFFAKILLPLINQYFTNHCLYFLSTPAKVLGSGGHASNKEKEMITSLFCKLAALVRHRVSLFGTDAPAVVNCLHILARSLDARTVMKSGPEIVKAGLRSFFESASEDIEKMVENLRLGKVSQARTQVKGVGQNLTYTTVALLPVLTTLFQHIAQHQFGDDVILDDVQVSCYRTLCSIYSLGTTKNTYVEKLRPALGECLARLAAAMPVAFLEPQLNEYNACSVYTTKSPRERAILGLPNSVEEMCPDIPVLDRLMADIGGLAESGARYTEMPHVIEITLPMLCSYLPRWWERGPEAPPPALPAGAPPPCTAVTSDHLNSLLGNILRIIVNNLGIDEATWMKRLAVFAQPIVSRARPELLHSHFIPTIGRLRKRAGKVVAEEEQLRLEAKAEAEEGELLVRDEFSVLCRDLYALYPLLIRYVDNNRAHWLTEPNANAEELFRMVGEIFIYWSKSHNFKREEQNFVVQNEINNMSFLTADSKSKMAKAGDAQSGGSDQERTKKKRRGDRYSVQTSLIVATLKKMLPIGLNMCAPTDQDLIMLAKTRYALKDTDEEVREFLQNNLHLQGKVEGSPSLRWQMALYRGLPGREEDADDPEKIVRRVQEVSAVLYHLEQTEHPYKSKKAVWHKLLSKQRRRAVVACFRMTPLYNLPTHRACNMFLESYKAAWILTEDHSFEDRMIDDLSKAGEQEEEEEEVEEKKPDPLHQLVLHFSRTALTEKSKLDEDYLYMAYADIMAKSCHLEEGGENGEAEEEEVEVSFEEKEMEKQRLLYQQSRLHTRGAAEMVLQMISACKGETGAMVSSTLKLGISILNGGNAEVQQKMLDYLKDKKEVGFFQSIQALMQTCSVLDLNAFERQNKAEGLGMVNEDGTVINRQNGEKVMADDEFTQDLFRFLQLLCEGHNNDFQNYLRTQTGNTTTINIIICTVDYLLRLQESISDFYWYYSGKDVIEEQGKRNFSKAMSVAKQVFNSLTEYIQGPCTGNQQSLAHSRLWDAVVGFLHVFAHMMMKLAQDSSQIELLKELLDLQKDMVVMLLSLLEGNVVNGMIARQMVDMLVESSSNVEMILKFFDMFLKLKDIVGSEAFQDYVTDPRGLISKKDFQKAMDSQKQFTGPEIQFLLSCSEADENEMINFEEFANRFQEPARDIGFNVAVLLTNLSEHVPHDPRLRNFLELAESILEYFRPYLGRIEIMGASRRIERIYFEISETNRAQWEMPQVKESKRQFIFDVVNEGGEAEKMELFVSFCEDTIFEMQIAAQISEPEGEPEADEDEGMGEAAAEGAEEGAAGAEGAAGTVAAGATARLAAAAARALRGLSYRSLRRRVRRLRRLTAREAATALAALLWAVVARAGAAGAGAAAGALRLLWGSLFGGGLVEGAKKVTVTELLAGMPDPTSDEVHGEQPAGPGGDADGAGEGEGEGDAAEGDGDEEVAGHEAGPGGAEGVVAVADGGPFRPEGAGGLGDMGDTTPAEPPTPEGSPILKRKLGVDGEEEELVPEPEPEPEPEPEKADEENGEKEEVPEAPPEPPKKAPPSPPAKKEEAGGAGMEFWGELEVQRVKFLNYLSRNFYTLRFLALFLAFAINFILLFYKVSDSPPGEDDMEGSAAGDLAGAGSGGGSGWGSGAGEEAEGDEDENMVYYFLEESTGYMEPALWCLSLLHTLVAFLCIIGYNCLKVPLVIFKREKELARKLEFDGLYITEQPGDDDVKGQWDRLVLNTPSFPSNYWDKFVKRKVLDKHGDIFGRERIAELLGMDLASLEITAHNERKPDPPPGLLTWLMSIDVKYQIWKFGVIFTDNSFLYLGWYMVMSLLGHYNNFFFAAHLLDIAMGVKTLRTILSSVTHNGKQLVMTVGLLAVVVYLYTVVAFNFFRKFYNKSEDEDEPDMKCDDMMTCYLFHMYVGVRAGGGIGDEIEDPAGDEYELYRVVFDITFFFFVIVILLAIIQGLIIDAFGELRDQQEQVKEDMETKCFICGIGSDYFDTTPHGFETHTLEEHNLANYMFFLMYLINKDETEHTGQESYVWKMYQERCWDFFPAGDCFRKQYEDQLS

Molecular target: T1, skeletal muscle ryanodine receptor (Oryctolagus cuniculus, UniProt P11716)
T1 construct: Rabbit skeletal muscle triads were prepared as previously described; from tissue; host or cells: rabbit skeletal muscle triads
Experiment: [3H]Ryanodine competition binding to rabbit skeletal muscle triads
Protocol: Rabbit skeletal muscle triads were prepared as previously described (Sharp et al., J. Biol. Chem. 262: 12309-12315 (1987)). […]

SMILES: CC1CCC2(O)C3(C)CC4(O)OC2(C1O)C1(O)C3(O)C(OC(=O)c2ccc[nH]2)C(O)(C(C)C)C41C (stereo not shown) [Ryanodine]
- IC50: ~20 nM
